Data: patent US9670266B2, “Method and composition for crystallizing G protein-coupled receptors” (The Board of Trustees of the Leland Stanford Junior …, priority 2007, dated 2017)

Tested on: β2AR-T4L
Test: Competition binding against 0.5 nM [^3H]DHA, Sf9 membranes, β2AR-T4L

With `COc1ccc(CC(C)NCC(O)c2ccc(O)c(NC=O)c2)cc1` (stereo not shown) the “affinity of β2AR-T4L relative to wild-type β2AR” value was “two to three-fold higher”.
